Chains of the proteins cited; added tags and fusions are not shown. Lines headed by an entry give the natural chain unless they say otherwise; changes in a name come on top.
UniProt Q9NPD5: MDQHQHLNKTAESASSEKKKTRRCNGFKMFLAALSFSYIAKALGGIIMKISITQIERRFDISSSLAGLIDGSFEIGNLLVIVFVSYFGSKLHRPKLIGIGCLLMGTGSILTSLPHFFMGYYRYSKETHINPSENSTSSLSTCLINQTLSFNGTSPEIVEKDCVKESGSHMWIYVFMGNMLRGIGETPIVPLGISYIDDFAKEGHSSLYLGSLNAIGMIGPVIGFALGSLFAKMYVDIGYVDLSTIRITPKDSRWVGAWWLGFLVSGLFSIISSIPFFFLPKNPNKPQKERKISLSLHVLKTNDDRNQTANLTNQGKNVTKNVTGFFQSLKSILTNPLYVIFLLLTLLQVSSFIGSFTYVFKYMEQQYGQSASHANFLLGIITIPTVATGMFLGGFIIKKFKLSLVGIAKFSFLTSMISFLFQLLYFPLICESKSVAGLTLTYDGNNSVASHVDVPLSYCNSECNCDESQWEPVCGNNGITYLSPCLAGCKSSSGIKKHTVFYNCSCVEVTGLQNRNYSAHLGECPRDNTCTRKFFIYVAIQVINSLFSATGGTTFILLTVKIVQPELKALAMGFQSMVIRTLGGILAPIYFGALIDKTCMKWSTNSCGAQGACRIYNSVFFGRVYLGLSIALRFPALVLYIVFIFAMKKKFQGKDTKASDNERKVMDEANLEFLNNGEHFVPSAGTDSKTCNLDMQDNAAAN

In article PMC3361267 (Journal of Medicinal Chemistry, 2012):

Target: OATP1B3 (Homo sapiens, UniProt Q9NPD5)

Row | Compound | OATP1B3 Inhib %
1 | C=C[C@H]1C[N@@]2CC[C@H]1C[C@@H]2[C@@H](O)c1ccnc2ccc(OC)cc12 [Quinidine] | 37.2%
2 | C=C[C@H]1C[N@@]2CC[C@H]1C[C@H]2[C@H](O)c1ccnc2ccc(OC)cc12 [Quinine] | -1.3%
